Broadly, the IC50 is the concentration needed to halve the response being measured.

Amino acid sequences for entries named in this document (tags omitted).
UniProt P61073, whole entry: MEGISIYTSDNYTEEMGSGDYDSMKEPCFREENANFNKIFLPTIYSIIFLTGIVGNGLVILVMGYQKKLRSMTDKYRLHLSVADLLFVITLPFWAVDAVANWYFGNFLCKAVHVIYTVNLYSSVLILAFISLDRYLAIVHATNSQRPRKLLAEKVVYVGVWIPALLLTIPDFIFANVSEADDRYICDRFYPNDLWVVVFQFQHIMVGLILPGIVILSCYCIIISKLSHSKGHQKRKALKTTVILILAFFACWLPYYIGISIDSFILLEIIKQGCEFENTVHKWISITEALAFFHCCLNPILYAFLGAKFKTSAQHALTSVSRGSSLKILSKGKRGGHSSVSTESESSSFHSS

The target of one assay is CXCR4 (Homo sapiens, UniProt P61073). Briefly: Competitive receptor binding assay on Jurkat cells with 125I-CPCR4 as tracer. The arrangement: Jurkat cells that endogenously express the CXCR4 receptor; endogenous in cells; host or cells: Jurkat cells.
Conditions: not given
The protocol:
For receptor binding assays cells were resuspended in PBS/0.2% BSA. A total of 200 μl of the suspension containing 400,000 Jurkat cells were incubated with 25 μl of the tracer solution (containing 3.1 kBq, approx. 0.1 nM) and 25 μl of the diluent or the competitor at different concentrations. […] After shaking for 2 h at room temperature, the incubation was terminated by centrifugation at 1300 rpm for 5 min. Cell pellets were washed once with cold PBS followed by a second centrifugation step. Cell bound radioactivity was determined by using a gamma counter. Experiments were repeated 2-3 times in triplicates. IC50 values of the compounds were calculated by nonlinear regression using GraphPad Prism (GraphPad Prism 4.0 Software, Inc., San Diego, Calif., USA). Each data point is the average of three determinations.
On to `C[C@H]1C(=O)N(C)CC(=O)N(C)[C@H](Cc2ccc(O)cc2)C(=O)N[C@@H](CCCNC(=N)N)C(=O)N[C@@H](CCCNC(=N)N)C(=O)N[C@@H](Cc2ccc3ccccc3c2)C(=O)N1C` [BL96, cyc[Arg-Nal-(Me)Ala-(Me)Gly-(Me)D-Tyr-Arg]], for which the IC50 was > 1000 nM. On the same count and under the same terms, the result for `CN1CC(=O)N(C)[C@H](Cc2ccc(O)cc2)C(=O)N[C@@H](CCCNC(=N)N)C(=O)N[C@@H](CCCNC(=N)N)C(=O)N[C@@H](Cc2ccc3ccccc3c2)C1=O` [OD13, cyc[Arg-Nal-(Me)Gly-(Me)D-Tyr-Arg]] reads > 1000 nM. On the same count and under the same terms, the result for `C[C@H]1C(=O)NCC(=O)N(C)[C@H](Cc2ccc(O)cc2)C(=O)N[C@@H](CCCNC(=N)N)C(=O)N[C@@H](CCCNC(=N)N)C(=O)N[C@@H](Cc2ccc3ccccc3c2)C(=O)N1C` [BL79, cyc[Arg-Nal-(Me)Ala-Gly-(Me)D-Tyr-Arg]] reads > 1000 nM. Take `C[C@@H]1NC(=O)[C@H](Cc2ccc3ccccc3c2)N(C)C(=O)[C@H](CCCNC(=N)N)NC(=O)[C@H](CCCNC(=N)N)NC(=O)[C@@H](Cc2ccc(O)cc2)N(C)C(=O)CN(C)C1=O` [BL97, cyc[Arg-(Me)Nal-Ala-(Me)Gly-(Me)D-Tyr-Arg]]: the 50% inhibitory concentration (IC50) was > 1000 nM. Regarding `C[C@H]1C(=O)NCC(=O)N(C)[C@H](Cc2ccc(O)cc2)C(=O)N(C)[C@@H](CCCNC(=N)N)C(=O)N[C@@H](CCCNC(=N)N)C(=O)N[C@@H](Cc2ccc3ccccc3c2)C(=O)N1C` [BL88, cyc[Arg-Nal-(Me)Ala-Gly-(Me)D-Tyr-(Me)Arg]], the IC50 is > 1000 nM.

For the compound `C[C@@H]1NC(=O)[C@H](Cc2ccc3ccccc3c2)NC(=O)[C@H](CCCNC(=N)N)NC(=O)[C@H](CCCNC(=N)N)N(C)C(=O)[C@@H](Cc2ccc(O)cc2)N(C)C(=O)CNC1=O` [BL76, cyc[Arg-Nal-Ala-Gly-(Me)D-Tyr-(Me)Arg]], the IC50 is > 1000 nM. With `C[C@@H]1NC(=O)[C@H](Cc2ccc3ccccc3c2)NC(=O)[C@H](CCCNC(=N)N)NC(=O)[C@H](CCCNC(=N)N)NC(=O)[C@@H](Cc2ccc(O)cc2)N(C)C(=O)CN(C)C1=O` [BL80, cyc[Arg-Nal-Ala-(Me)Gly-(Me)D-Tyr-Arg]], the IC50 is > 1000 nM.

As to `C[C@@H]1NC(=O)[C@H](Cc2ccc3ccccc3c2)N(C)C(=O)[C@H](CCCNC(=N)N)NC(=O)[C@H](CCCNC(=N)N)N(C)C(=O)[C@@H](Cc2ccc(O)cc2)N(C)C(=O)CNC1=O` [BL89, cyc[Arg-(Me)Nal-Ala-Gly-(Me)D-Tyr-(Me)Arg]], the IC50 was > 1000 nM. For `C[C@@H]1NC(=O)[C@H](Cc2ccc3ccccc3c2)NC(=O)[C@H](CCCNC(=N)N)NC(=O)[C@H](CCCNC(=N)N)NC(=O)[C@@H](Cc2ccc(O)cc2)N(C)C(=O)CNC1=O` [BL70, cyc[Arg-Nal-Ala-Gly-(Me)D-Tyr-Arg]], the IC50 is 200 to 300 nM.

Take `N=C(N)NCCC[C@@H]1NC(=O)[C@H](CCCNC(=N)N)NC(=O)[C@@H](Cc2ccc(O)cc2)NC(=O)CNC(=O)[C@H](Cc2ccc3ccccc3c2)NC1=O` [CPCR4, cyclo[D-Tyr-Arg-Arg-Nal-Gly], reference compound]: the IC50 is 4 nM.

Compound `CC(F)C(=O)NC[C@@H]1NC(=O)[C@H](Cc2ccc3ccccc3c2)NC(=O)[C@H](CCCNC(=N)N)NC(=O)[C@H](CCCNC(=N)N)NC(=O)[C@@H](Cc2ccc(O)cc2)NC1=O` (stereo partly drawn) [Dap(FP)-8k, cyc[D-Tyr-Arg-Arg-Nal-Dap(FP)]] registered an IC50 of 140 nM.

As to `CN1C(=O)CNC(=O)[C@H](Cc2ccc3ccccc3c2)N(C)C(=O)[C@H](CCCNC(=N)N)NC(=O)[C@H](CCCNC(=N)N)NC(=O)[C@H]1Cc1ccc(O)cc1` [OD14, cyc[Arg-(Me)Nal-Gly-(Me)D-Tyr-Arg]], the half-maximal inhibitory concentration (IC50) is > 1000 nM. On the same count and under the same terms, as for `C[C@@H]1NC(=O)[C@H](Cc2ccc3ccccc3c2)N(C)C(=O)[C@H](CCCNC(=N)N)NC(=O)[C@H](CCCNC(=N)N)NC(=O)[C@@H](Cc2ccc(O)cc2)N(C)C(=O)CNC1=O` [BL78, cyc[Arg-(Me)Nal-Ala-Gly-(Me)D-Tyr-Arg]], the figure is > 1000 nM; as for `C[C@@H]1NC(=O)[C@H](Cc2ccc3ccccc3c2)NC(=O)[C@H](CCCNC(=N)N)N(C)C(=O)[C@H](CCCNC(=N)N)NC(=O)[C@@H](Cc2ccc(O)cc2)N(C)C(=O)CN(C)C1=O` [BL98, cyc[(Me)Arg-Nal-Ala-(Me)Gly-(Me)D-Tyr-Arg]], > 1000 nM; as for `C[C@H]1C(=O)NCC(=O)N(C)[C@H](Cc2ccc(O)cc2)C(=O)N[C@@H](CCCNC(=N)N)C(=O)N[C@@H](CCCNC(=N)N)C(=O)N(C)[C@@H](Cc2ccc3ccccc3c2)C(=O)N1C` [BL99, cyc[Arg-(Me)Nal-(Me)Ala-Gly-(Me)D-Tyr-Arg]], > 1000 nM. Regarding `C[C@@H]1NC(=O)[C@H](Cc2ccc3ccccc3c2)NC(=O)[C@H](CCCNC(=N)N)N(C)C(=O)[C@H](CCCNC(=N)N)NC(=O)[C@@H](Cc2ccc(O)cc2)N(C)C(=O)CNC1=O` [BL77, cyc[(Me)Arg-Nal-Ala-Gly-(Me)D-Tyr-Arg]], the IC50 was > 1000 nM.

Still in this assay, the particulars now being: Table 1, Nα-monomethylated cyclic pentapeptides; read-out: IC50.
Consider `CN1C(=O)CNC(=O)[C@H](Cc2ccc3ccccc3c2)NC(=O)[C@H](CCCNC(=N)N)NC(=O)[C@H](CCCNC(=N)N)NC(=O)[C@H]1Cc1ccc(O)cc1` [OD9, cyc[(Me)D-Tyr-Arg-Arg-Nal-Gly]], for which the IC50 was determined as 247 nM.

As for `CN1C(=O)[C@H](CCCNC(=N)N)NC(=O)[C@H](CCCNC(=N)N)NC(=O)[C@@H](Cc2ccc(O)cc2)NC(=O)CNC(=O)[C@@H]1Cc1ccc2ccccc2c1` [OD5, cyc[D-Tyr-Arg-Arg-(Me)Nal-Gly]], the IC50 amounted to 894 nM. For `CN1CC(=O)N[C@H](Cc2ccc(O)cc2)C(=O)N[C@@H](CCCNC(=N)N)C(=O)N[C@@H](CCCNC(=N)N)C(=O)N[C@@H](Cc2ccc3ccccc3c2)C1=O` [OD7, cyc[D-Tyr-Arg-Arg-Nal-(Me)Gly]], the IC50 is 136 nM.

The assay is the same for the next values; noted with them: Table 4, Orn-Nδ and/or Orn-Nα-modified pentapeptides; read-out: IC50.
In the case of `CC(=O)NCCC[C@@H]1NC(=O)[C@@H](Cc2ccc(O)cc2)NC(=O)CNC(=O)[C@H](Cc2ccc3ccccc3c2)NC(=O)[C@H](CCCNC(=N)N)NC1=O` [cyc[D-Tyr-Orn(Ac)-Arg-Nal-Gly]], the IC50 came to 29 ± 11 nM. On to `CN(CCC[C@@H]1NC(=O)[C@@H](Cc2ccc(O)cc2)NC(=O)CNC(=O)[C@H](Cc2ccc3ccccc3c2)NC(=O)[C@H](CCCNC(=N)N)NC1=O)C(=O)c1ccc(F)cc1` [cyc[D-Tyr-Orn(Me,FB)-Arg-Nal-Gly]], for which the IC50 amounted to 78 ± 25 nM. On to `CC(F)C(=O)NCCC[C@@H]1NC(=O)[C@@H](Cc2ccc(O)cc2)NC(=O)CNC(=O)[C@H](Cc2ccc3ccccc3c2)NC(=O)[C@H](CCCNC(=N)N)NC1=O` (stereo partly drawn) [cyc[D-Tyr-Orn(FP)-Arg-Nal-Gly]], for which the IC50 stood at 35 ± 13 nM. With `CN(CCC[C@@H]1NC(=O)[C@@H](Cc2ccc(O)cc2)NC(=O)CNC(=O)[C@H](Cc2ccc3ccccc3c2)NC(=O)[C@H](CCCNC(=N)N)NC1=O)Cc1ccc2ccccc2c1` [cyc[D-Tyr-Orn(Me,N2)-Arg-Nal-Gly]], the IC50 was 34.2 nM. Regarding `N=C(N)NCCC[C@@H]1NC(=O)[C@H](CCCNCc2ccccc2)NC(=O)[C@@H](Cc2ccc(O)cc2)NC(=O)CNC(=O)[C@H](Cc2ccc3ccccc3c2)NC1=O` [cyc[D-Tyr-Orn(Bz)-Arg-Nal-Gly]], the IC50 is 155 ± 63 nM. Regarding `CNCCC[C@@H]1NC(=O)[C@@H](Cc2ccc(O)cc2)NC(=O)CNC(=O)[C@H](Cc2ccc3ccccc3c2)NC(=O)[C@H](CCCNC(=N)N)NC1=O` [cyc[D-Tyr-Orn(Me)-Arg-Nal-Gly]], the IC50 is 105 ± 7 nM. As for `CN(CCC[C@@H]1NC(=O)[C@@H](Cc2ccc(O)cc2)NC(=O)CNC(=O)[C@H](Cc2ccc3ccccc3c2)NC(=O)[C@H](CCCNC(=N)N)NC1=O)Cc1cccc2ccccc12` [cyc[D-Tyr-Orn(Me,N1)-Arg-Nal-Gly]], the IC50 amounted to 39.7 nM.

Still in this assay, the particulars now being: Table 5, D-Orn derivatives, His, Phe; read-out: IC50.
Regarding `N=C(N)NCCC[C@@H]1NC(=O)[C@H](Cc2ccccc2)NC(=O)[C@@H](Cc2ccc(O)cc2)NC(=O)CNC(=O)[C@H](Cc2ccc3ccccc3c2)NC1=O` [cyc[D-Tyr-Phe-Arg-Nal-Gly]], the half-maximal inhibitory concentration (IC50) was determined as 154 nM.

The same assay, now with this note: Table 6, cyclic hexapeptides; read-out: IC50.
As to `C[C@@H]1NC(=O)[C@H](C)NC(=O)[C@H](Cc2ccc3ccccc3c2)NC(=O)[C@H](CCCNC(=N)N)NC(=O)[C@H](CCCNC(=N)N)NC(=O)[C@@H](Cc2ccc(O)cc2)NC1=O` [BL158, cyc[D-Tyr-Arg-Arg-Nal-Ala-Ala]], the IC50 was 114 nM.

Still in this assay, the particulars now being: Table 8, Gly substituted by Dap; read-out: IC50.
As for `N=C(N)NCCC[C@@H]1NC(=O)[C@H](CCCNC(=N)N)NC(=O)[C@@H](Cc2ccc(O)cc2)NC(=O)[C@H](CNC(=O)c2ccc(F)cc2)NC(=O)[C@H](Cc2ccc3ccccc3c2)NC1=O` [Dap(FB)-8k, cyc[D-Tyr-Arg-Arg-Nal-Dap(FB)]], the IC50 was found to be 350 nM.

The values above are taken from patent US8614290B2, “Cancer imaging and treatment” (Technische Universitat Munchen, priority 2007, dated 2013).
